Source: US20230414593A1, “EZH2 INHIBITION THERAPIES FOR THE TREATMENT OF ANDROGEN RECEPTOR MUTATED PROSTATE CANCERS” (Constellation Pharmaceuticals, Inc, priority 2020, published 2023)

System: mCRPC with pathogenic AR mutations (L702H, T878A, H875Y) or wild-type AR
Experiment: Phase 2 clinical study, progression free survival in second-line mCRPC subjects (NCT03480646)
Assay type: in vivo, human
Conditions: subjects with pathogenic AR mutations (L702H, T878A, H875Y) compared with wild-type AR subjects; FIG. 1

CNC(=O)c1ccc(N2C(=S)N(c3ccc(C#N)c(C(F)(F)F)c3)C(=O)C2(C)C)cc1F [enzalutamide]
average progression free survival: lower average progression free survival
